Source: patent US7285687B2 (priority 2002, dated 2007)

Tests used:
[1] = test system: male ICR mice; assay: Suppression of spontaneous activity (SA) in mice, i.v.; format: in vivo, mouse; conditions: @ 30 mg/kg, Table 6
Protocol: (§1) Male ICR mice (25-32 g), obtained from Harlan (Dublin, Va.), were housed in groups of five. All animals were kept in a temperature-controlled (20-22° C.) environment with a 12-hour light-dark cycle (lights on at 7 a.m.). Separate mice were used for testing each drug dose in the in vivo behavioral procedures. Brain tissue for binding studies was obtained from male Sprague-Dawley rats (150-200 g) purchased from Harlan Laboratories (Dublin, Va.).
(§2) Measurement of spontaneous activity in mice occurred in standard activity chambers interfaced with a Digiscan Animal Activity Monitor (Omnitech Electronics, Inc., Columbus, Ohio). […]
(§3) Prior to testing in the behavioral procedures, mice were acclimated to the experimental setting (ambient temperature 22-24° C.) overnight. Pre-injection control values were determined for rectal temperature and tail-flick latency (in sec). Five min after i.v. injection with drug or vehicle, mice were placed in individual activity chambers and spontaneous activity was measured for 10 min. […] Tail-flick latency was measured at 20 min post-injection. […] Antinociception was calculated as percent of maximum possible effect {% MPE=[(test−control latency)/(10-control)]×100}. […] At 30 min post-injection, rectal temperature was measured. This value was expressed as the difference between control temperature (before injection) and temperatures following drug administration (° C.). […]

[2] = test system: male ICR mice; assay: Tail-flick antinociception (TF, % MPE) in mice, i.v.; format: in vivo, mouse; conditions: @ 30 mg/kg, Table 6
Protocol: as §1, §2, §3

CCCCCCC(C)(C)c1cc(OC)c(C2(O)CCOCC2)c(OC)c1
S.A. % effect at dose [1]: 36% @ 30
T.F. % effect at dose [2]: 23% @ 30
